For this experiment, the system named is Lysosomal alpha-glucosidase (Homo sapiens), P10253 [M519V]. The experiment can be described thus: Induction of GAA M519V mutant activity in Pompe patient fibroblast cells assessed as fold increase in intracellular activity using 4- methylumbelliferyl-alpha-D-glucopyranoside measured after 7 days at 10 uM relative to control. In kind it is cell-based. To be noted: time 7.0 day.

SMILES strings stand for the structures.

As for `CCCCN1C[C@@H](O)[C@H](O)[C@H]1CO`, the fold change (FC) is 5.7.

The record behind these values is ChEMBL document CHEMBL5331109, “Design and Pharmacological Chaperone Effects of N-(4'-Phenylbutyl)-DAB Derivatives Targeting the Lipophilic Pocket of Lysosomal Acid α-Glucosidase” (J Med Chem, 2023).
